# Literature values, collected in patent US20260001922A1, “PEPTIDES TARGETING SODIUM CHANNELS TO TREAT PAIN” (priority 2022, published 2026).
# Sequences of proteins named here, by UniProt entry; tags and fusion partners are left off.
# UniProt P35499, whole entry: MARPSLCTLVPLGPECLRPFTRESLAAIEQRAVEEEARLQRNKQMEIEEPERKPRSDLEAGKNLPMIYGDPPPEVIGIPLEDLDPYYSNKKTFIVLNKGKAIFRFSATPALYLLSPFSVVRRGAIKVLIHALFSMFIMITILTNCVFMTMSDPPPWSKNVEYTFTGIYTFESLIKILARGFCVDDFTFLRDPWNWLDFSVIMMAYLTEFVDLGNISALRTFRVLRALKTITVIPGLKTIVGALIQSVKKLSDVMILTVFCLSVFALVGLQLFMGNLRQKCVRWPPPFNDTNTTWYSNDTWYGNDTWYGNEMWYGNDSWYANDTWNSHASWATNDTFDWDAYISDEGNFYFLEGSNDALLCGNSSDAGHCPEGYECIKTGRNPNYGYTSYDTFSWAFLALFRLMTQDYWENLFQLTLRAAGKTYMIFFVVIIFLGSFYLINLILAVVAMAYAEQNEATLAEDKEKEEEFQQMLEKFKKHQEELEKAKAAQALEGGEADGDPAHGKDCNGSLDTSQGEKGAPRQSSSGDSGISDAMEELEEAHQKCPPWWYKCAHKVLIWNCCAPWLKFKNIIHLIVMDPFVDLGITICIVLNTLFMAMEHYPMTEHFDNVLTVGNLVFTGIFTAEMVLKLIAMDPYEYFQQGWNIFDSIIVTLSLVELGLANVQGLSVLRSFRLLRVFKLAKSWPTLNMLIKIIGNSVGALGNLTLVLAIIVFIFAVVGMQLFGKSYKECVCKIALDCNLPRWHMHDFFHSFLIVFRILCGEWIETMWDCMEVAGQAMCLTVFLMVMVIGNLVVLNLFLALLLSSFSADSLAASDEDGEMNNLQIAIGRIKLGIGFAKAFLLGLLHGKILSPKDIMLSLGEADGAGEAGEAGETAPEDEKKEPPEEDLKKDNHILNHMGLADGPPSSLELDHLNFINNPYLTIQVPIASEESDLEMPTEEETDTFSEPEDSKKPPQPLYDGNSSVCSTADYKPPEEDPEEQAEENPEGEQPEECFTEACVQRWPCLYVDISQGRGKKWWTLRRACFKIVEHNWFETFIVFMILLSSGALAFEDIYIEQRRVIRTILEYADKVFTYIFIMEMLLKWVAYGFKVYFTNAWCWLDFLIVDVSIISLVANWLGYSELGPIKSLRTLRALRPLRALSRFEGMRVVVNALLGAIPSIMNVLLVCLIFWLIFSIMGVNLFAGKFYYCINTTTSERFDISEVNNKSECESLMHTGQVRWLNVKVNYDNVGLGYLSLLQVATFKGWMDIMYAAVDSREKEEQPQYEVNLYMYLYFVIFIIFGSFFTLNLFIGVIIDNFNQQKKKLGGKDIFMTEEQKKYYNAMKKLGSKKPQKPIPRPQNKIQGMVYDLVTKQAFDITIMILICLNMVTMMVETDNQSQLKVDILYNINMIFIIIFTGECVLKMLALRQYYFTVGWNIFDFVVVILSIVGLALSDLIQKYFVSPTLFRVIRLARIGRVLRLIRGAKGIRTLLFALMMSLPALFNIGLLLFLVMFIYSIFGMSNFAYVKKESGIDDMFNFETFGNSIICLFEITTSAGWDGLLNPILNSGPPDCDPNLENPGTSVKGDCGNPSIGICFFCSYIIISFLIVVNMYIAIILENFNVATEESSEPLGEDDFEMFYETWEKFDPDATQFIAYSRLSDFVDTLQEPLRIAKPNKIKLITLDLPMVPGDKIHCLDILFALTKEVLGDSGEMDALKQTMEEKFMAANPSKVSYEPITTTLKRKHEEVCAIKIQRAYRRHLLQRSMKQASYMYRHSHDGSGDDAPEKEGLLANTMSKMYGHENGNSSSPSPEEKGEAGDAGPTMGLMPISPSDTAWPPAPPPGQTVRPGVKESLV
# UniProt Q14524, whole entry: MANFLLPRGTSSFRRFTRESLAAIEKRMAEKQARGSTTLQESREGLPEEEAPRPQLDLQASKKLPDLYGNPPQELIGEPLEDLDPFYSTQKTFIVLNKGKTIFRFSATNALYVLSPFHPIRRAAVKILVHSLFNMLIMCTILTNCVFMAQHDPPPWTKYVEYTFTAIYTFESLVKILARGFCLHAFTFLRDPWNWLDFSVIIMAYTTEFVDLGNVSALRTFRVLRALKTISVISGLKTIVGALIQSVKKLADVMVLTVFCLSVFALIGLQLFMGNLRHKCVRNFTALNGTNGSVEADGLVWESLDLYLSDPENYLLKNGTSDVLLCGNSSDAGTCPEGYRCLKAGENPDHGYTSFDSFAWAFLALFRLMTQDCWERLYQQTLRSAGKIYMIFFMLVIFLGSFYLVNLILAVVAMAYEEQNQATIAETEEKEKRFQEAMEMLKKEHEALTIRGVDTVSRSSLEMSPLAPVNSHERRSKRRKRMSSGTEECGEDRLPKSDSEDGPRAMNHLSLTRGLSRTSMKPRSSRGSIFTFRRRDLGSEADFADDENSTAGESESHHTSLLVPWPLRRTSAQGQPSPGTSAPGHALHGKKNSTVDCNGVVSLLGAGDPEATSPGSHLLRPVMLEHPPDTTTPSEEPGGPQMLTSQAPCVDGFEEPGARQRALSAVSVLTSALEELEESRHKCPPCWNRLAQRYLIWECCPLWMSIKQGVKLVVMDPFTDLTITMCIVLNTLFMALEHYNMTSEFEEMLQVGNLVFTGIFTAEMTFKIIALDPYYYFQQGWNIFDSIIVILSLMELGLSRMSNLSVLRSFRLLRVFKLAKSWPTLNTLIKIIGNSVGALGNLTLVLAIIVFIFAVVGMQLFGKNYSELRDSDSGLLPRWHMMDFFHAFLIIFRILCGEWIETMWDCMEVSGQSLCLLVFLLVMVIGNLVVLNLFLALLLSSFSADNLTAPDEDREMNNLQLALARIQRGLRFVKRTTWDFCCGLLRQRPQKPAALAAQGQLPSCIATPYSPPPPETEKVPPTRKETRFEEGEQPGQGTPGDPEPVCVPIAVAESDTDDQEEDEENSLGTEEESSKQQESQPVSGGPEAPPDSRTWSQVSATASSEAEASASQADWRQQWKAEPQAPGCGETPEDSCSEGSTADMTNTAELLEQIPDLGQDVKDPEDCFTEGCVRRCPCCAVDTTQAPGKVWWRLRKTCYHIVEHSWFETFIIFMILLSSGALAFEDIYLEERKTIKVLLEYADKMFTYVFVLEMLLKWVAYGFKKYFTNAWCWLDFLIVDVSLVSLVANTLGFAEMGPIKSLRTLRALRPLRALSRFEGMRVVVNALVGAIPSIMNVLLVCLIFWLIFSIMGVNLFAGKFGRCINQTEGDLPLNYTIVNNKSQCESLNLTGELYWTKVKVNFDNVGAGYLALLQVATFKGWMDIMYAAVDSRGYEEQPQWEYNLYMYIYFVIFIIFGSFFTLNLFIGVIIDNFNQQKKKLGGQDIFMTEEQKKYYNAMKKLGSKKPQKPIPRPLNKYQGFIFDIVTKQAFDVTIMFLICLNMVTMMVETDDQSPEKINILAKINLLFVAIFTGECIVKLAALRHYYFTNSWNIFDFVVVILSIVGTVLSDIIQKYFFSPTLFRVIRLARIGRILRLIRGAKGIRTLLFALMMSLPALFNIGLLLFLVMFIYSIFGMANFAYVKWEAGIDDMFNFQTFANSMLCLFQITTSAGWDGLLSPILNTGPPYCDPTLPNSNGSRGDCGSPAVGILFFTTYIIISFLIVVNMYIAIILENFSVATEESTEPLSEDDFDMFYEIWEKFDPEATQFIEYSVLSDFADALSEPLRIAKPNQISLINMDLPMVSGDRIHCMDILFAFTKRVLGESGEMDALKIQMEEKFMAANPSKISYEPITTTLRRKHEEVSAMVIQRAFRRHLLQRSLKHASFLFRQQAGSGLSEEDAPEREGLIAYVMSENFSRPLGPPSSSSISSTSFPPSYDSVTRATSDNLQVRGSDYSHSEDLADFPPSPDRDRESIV
# Columns and labels:
# hNav1.4 = hNav1.4 (Homo sapiens, UniProt P35499); conditions: cited from earlier work
# hNav1.5 = hNav1.5 (Homo sapiens, UniProt Q14524); conditions: cited from earlier work
sequence,measurement,setting,value
DCLGAFRKCIPDNDKCCRPNLVCSRLHRWCKYVF [GpTx-1],Selectivity for hNav1.7 vs hNav1.4,hNav1.4,20 fold
same,Selectivity for hNav1.7 vs hNav1.5,hNav1.5,"1,000 fold"
